Measurements reported in PubChem BioAssay AID845 (Columbia University Molecular Screening Center, 2007).
Only a part is listed here, and it is no random draw. Some of these compounds have results that are not shown, active ones among them. The source made the active and inactive calls.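 The calls were made as follows: active = cell count reduction more than 3 SD above the screen-wide mean (cut at about 70% in these data); inactive = the rest.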

assay: HUVEC cell count loss after compound exposure – imaging, Hoechst nuclear count, IL-1B stimulus, cytotoxicity control for IL-1B NFkB translocation project, primary screen (AID 845); settings: IL-1B stimulated, at 2 µM, stronger effect = higher value;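 also: normalized per plate to untreated control cells as the no-loss baseline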

Structure (SMILES) | cell count reduction
CC(C)N1C(=O)CC2(CCN(CCOC(=O)C(O)(c3ccccc3)c3ccccc3)CC2)C1=O | inactive: -44.9%
CN(C)c1cccc(C(=O)NCC2(N(C)C)CCCCC2)c1 | inactive: -6.6%
O=C(OC1CN2CCC1CC2)C(CO)(c1ccccc1)c1ccccc1 (stereo not drawn) | inactive: 14.1%
